Measurements as given in patent publication US20230091225A1, “Bifunctional chimeric heterocyclic compounds for targeted degradation of androgen receptors and use thereof” (HINOVA PHARMACEUTICALS INC., priority 2019, published 2023).
This is a selection: effects in other tests are not listed, and their absence says nothing.

Protein sequences, listed by entry. Tags and fused reporters are not part of them.
UniProt P10275, whole entry: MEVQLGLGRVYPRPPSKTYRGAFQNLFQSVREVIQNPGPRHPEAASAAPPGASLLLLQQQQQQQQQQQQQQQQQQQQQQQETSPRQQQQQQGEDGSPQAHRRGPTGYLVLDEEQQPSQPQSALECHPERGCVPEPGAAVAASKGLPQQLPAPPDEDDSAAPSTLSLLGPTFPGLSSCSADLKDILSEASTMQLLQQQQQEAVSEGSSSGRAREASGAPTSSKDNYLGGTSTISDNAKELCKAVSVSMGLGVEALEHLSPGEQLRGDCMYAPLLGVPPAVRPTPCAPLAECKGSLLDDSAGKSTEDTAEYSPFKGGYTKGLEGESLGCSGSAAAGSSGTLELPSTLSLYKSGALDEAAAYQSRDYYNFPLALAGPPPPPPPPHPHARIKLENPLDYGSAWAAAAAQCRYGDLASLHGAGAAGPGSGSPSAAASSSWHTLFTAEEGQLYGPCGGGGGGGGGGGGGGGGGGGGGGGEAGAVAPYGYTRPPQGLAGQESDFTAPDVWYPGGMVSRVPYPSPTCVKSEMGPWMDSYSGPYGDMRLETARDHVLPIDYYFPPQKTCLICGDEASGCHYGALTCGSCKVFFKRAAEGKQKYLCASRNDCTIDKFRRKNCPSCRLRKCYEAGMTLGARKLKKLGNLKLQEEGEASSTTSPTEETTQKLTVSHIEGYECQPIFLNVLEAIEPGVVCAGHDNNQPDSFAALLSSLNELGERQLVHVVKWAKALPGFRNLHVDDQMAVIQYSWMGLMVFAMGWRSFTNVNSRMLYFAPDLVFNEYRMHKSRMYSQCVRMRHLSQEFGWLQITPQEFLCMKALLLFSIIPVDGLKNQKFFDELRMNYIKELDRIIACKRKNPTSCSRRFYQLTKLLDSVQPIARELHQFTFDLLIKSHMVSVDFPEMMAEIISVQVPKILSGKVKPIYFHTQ

Target: androgen receptor (AR) (Homo sapiens, UniProt P10275)
Experiment: Degradation of androgen receptor (AR) protein in VCaP cells by ELISA
Assay type: cell-based
Conditions: 16 h, Table 3-1

Substance | DC50 [nM] | Dmax (%)
N-((1r,4r)-4-(3-chloro-4-cyanophenoxy)cyclohexyl)-5-(7-(1-(2-(2,6-dioxopiperidin-3-yl)-1,3-dioxoisoindolin-5-yl)piperidine-4-yl)-2,7-diazaspiro[3.5]nonan-2-yl)pyrazine-2-carboxamide | < 10 | ++++ (>80%)
N-((1r,4r)-4-(3-chloro-4-cyanophenoxy)cyclohexyl)-6-(7-(1-(2-(2,6-dioxopiperidin-3-yl)-1,3-dioxoisoindolin-5-yl)piperidine-4-yl)-2,7-diazaspiro[3.5]nonan-2-yl)pyridazine-3-formamide | < 10 | ++++ (>80%)
